# Reported melting point values for industrial, environmental and drug-like chemicals

From the experimental data distributed with OPERA 2.9.

The melting point is given in degrees Celsius.
Cells with "n/a" have no entry in this list.

melting point (°C),compound,name
188,Nc1c(I)cc(I)cc1I,"2,4,6-Triiodoaniline"
215,Cc1c(C=O)c2ccccn2c1C=O,"2-methylindolizine-1,3-dicarbaldehyde"
116,Cc1ccc(C(=O)N(C)c2ccc(O)cc2)cc1,"N-(4-hydroxyphenyl)-N,4-dimethylbenzamide"
329,Cc1sc2[nH]c(=S)[nH]c(=O)c2c1C,"2-mercapto-5,6-dimethylthieno[2,3-d]pyrimidin-4(3h)-one"
288,O=C(O)c1ccc(S(=O)(=O)N2CCOCC2)cc1,4-(Morpholine-4-sulfonyl)-benzoic acid
196.5,O=C(O)CCNCC(=O)O,N-(Carboxymethyl)-beta-alanine
154,NC(=O)c1c(N)sc2c1CCCC2,"2-Amino-4,5,6,7-tetrahydro-1-benzothiophene-3-carboxamide"
157,CN(C)C(=O)c1ccc(O)cc1,"4-hydroxy-N,N-dimethylbenzamide"
148,CCOc1oc(-c2ccccc2)nc1C(=O)O,"5-ethoxy-2-phenyl-1,3-oxazole-4-carboxylic Acid"
119,CCOc1cccc(C(N)=S)c1,3-ethoxybenzenecarbothioamide
54,COC(=O)c1nc(Cl)ccc1Cl,Clopyralid-methyl [ISO]
139,Cc1ccc(C(C)(C)C)cc1S(N)(=O)=O,5-tert-Butyl-2-methylbenzene-1-sulfonamide
257.8,Cl.c1ccc2c(CC3=NCCN3)cccc2c1,Naphazoline hydrochloride
34.5,N#Cc1cc(F)c(F)cc1Cl,"2-Chloro-4,5-difluorobenzonitrile"
132,CCOC(=O)CN(C(=O)CCl)c1ccccc1,"Glycine, N-(chloroacetyl)-N-phenyl-, ethyl ester"
218,Nn1c(-c2cccs2)n[nH]c1=S,n/a
62,COc1ccccc1-c1noc(CCl)n1,"5-(chloromethyl)-3-(2-methoxyphenyl)-1,2,4-oxadiazole"
74,Clc1ccc(Nc2ccccc2)cc1,4-Chloro-N-phenylbenzenamine
307.6,CCCCCCCCCCCC[N+](C)(C)CC(O)CS(=O)(=O)[O-] (stereo unspecified),Dodecyl(2-hydroxy-3-sulphonatopropyl)dimethylammonium
243,NNC(=O)CSc1nnc(-c2ccccc2)n1-c1ccccc1,n/a
46,CCOC(=O)c1c(N)sc(C)c1CC,ethyl 2-amino-4-ethyl-5-methylthiophene-3-carboxylate
202.1,CC1=C(NC(=O)O)/C(=N/C(=O)CN)C=CC1(NC(=O)O)c1cccc(C2=CC=C/C(=N\C(=O)CN)C2C)c1 (stereo partly drawn),n/a
183,O=C(O)c1ccccc1Cc1nc2ccccc2s1,"2-(1,3-benzothiazol-2-ylmethyl)benzoic acid"
142,CCNc1n[nH]c(=S)s1,"5-(ethylamino)-1,3,4-thiadiazole-2-thiol"
162.5,Oc1cncc(F)c1,3-Fluoro-5-hydroxypyridine
215,Nc1cc(S(=O)(=O)O)cc(S(=O)(=O)O)c1[O-].[K+],"Potassium 2-amino-4,6-disulfophenolate"
237,O=C(Nc1ccccn1)c1cc2ccccc2cc1O,3-hydroxy-n-pyridin-2-yl-2-naphthamide
65,CC(C)c1ccc(C=NO)cc1,4-(1-Methylethyl)benzaldehyde oxime
196,CC(C)(C)c1cc(C(=O)O)n[nH]1,3-tert-butyl-1H-pyrazole-5-carboxylic acid
202,O=c1c(-c2ccccc2)coc2cc(O)ccc12,7-Hydroxyisoflavone
160,O=C1CSC(=S)N1c1cccnc1,"3-(Pyridin-3-yl)-2-sulfanylidene-1,3-thiazolidin-4-one"
181,O=C(O)c1ccc(Cl)o1,5-chlorofuran-2-carboxylic acid
174,CC(=O)N1Cc2ccccc2CC1C(=O)O (stereo unspecified),"2-acetyl-1,2,3,4-tetrahydroisoquinoline-3-carboxylic acid"
79,COC(=O)CNS(=O)(=O)c1ccc(N)cc1,methyl {[(4-aminophenyl)sulfonyl]amino}acetate
152,Cc1ccc(C)c2sc(N)nc12,"4,7-dimethyl-1,3-benzothiazol-2-amine"
36,O=C(Nc1cccc(Cl)c1)OCC(F)(F)F,"2,2,2-trifluoroethyl 3-chlorophenylcarbamate"
130,CN(c1ccc(O)cc1)S(C)(=O)=O,"Methanesulfonamide, N-(4-hydroxyphenyl)-N-methyl- (9CI)"
33,N#CC=C(Cl)c1ccccc1,3-Chloro-3-phenyl-2-propenenitrile
93,O=Cc1ccc(-c2ccc(Cl)cc2[N+](=O)[O-])o1,5-(4-Chloro-2-nitrophenyl)furfural
95,O=C1c2ccccc2S(=O)(=O)N1CCBr,n/a
109,O=C(O)CCCNC(=O)c1ccc(Cl)cc1,4-(4-Chloro-benzoylamino)-butyric acid
299,O=C(CCl)Nc1ccc2c(c1)C(=O)c1ccccc1C2=O,n/a
88,N#CCc1coc(-c2ccccc2)n1,"(2-Phenyl-1,3-oxazol-4-yl)acetonitrile"
206,CC1(C)SCC(C(=O)O)NC1=O (stereo unspecified),"6,6-dimethyl-5-oxo-3-thiomorpholinecarboxylic acid"
299,Cc1cc(Br)cc2c1NC(=O)C2=O,"5-Bromo-7-methyl-1H-indole-2,3-dione"
251,COc1ccc2c(C)cc(NN)nc2c1,2-Hydrazinyl-7-methoxy-4-methylquinoline
141,COc1ccc(C2(C(=O)O)CCCC2)cc1OC,"1-(3,4-dimethoxyphenyl)cyclopentanecarboxylic acid"
138,O=C(O)CCc1ccc(S(=O)(=O)N2CCCC2)cc1,3-[4-(pyrrolidin-1-ylsulfonyl)phenyl]propanoic acid
80,CSCCC(NC(=O)c1ccc(Cl)cc1Cl)C(=O)O (stereo unspecified),"N-(2,4-Dichlorobenzoyl)methionine"
134,O=[N+]([O-])c1ccc(Cl)c2cccnc12,5-Chloro-8-nitroquinoline
161,COc1ccc(C(=O)NC(=O)CCl)cc1,N-(2-Chloro-acetyl)-4-methoxy-benzamide
76.5,N#CCc1ccccc1OCc1ccccc1,2-Benzyloxyphenylacetonitrile
218,CC(=O)c1ccc2c(c1)CC(=O)N2,5-ACETYLOXINDOLE
178,N#Cc1ccc(OCC(=O)O)cc1,(4-cyanophenoxy)acetic acid

A selection of 3 entries from above:

compound	name	melting point (°C)
O=C1CSC(=S)N1c1cccnc1	3-(Pyridin-3-yl)-2-sulfanylidene-1,3-thiazolidin-4-one	160
CCNc1n[nH]c(=S)s1	5-(ethylamino)-1,3,4-thiadiazole-2-thiol	142
Nc1c(I)cc(I)cc1I	2,4,6-Triiodoaniline	188

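OPERA's authors assembled the values from existing databases and did not measure them anew. A listed value is a point estimate from one report or more. How each value was measured is not recorded, so precision varies. A value may pool stereoisomers or salt forms, and the file does not say which form was measured. Some entries may be limits or estimates that an upstream database listed as plain numbers.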